The text below walks through data of patent US20040265808A1, “Genes involved in osteogenesis, and methods of use” (priority 2001, published 2004).

This experiment relates to C2C12, C3H10T1/2, ST2 and MC3T3-E1 cells. The experiment can be described thus: Changes in relative gene expression after BMP2 treatment (Affymetrix GeneChips). It counts as cell-based, mouse. As for the experimental part: FIG. 10 represents the effect of BMP2 on the expression of Gas6 and Ufo/Ax1 in pluripotential mensenchymal cell lines C3H10T1/2 and C2C1/2 cells and the osteoblast-like cells MC3T3-E1 were cultured in the presence or absence of 100 ng of recombinant BMP2 for 4 (4d) or 3 (3d) days. Total RNAs were extracted at using the RNAplus kit provided by Quantum. Changes in relative gene expression were assessed by using GeneChips (Affymetrix). Results are expressed in ratios using the untreated cells values as denominators, significant changes in expression (pval<0.1 and ratios>1.5x) are indicated with **.
Mouse cell lines representing different stages of osteoblastic differentiation, C2C12, C2H10T1/2, ST2 and MC3T3-E1, were grown in the presence of agents capable of the induction of osteoblastic differentiation in vitro such as BMP2 and Sonic Hedgehog or in the presence of TGF beta (negative control) or with serum alone. Primary cells derived from mouse calvaria were also cultured for 0, 2, 7 14 and 21 days and RNA prepared for each time point. For example, C3H10T ½ and C2C12 can be obtained from the ATCC (Manassas, Va., USA) under the collection numbers CCL-226 and CRL-1772, respectively.
Cell extracts for RNA preparation were collected at different time points by using the RNAplus kit provided by Quantum. For every resulting sample, labeled cDNA probe was then generated by reverse transcription followed by in vitro transcription incorporating biotin as part of the standard Affymetrix protocol.
The probes were hybridized in duplicate to the complete series of Affymetrix 35K mouse chips (Mu19KsubA, Mu19KsubB, Mu19KsubC, Mu11KsubA, Mu11KsubB and the chips scanned by laser after hybridization and staining. The final data set consisted in of a total of 580 scan files, each obtained using the GeneChip software, which for each qualifier in the file assigns an intensity which is a measure of the corresponding transcript abundance. The output files were further processed into a format which for each intensity adds an estimate of the standard deviation of the noise (Teilhaber et al, 2000, J. Comp. Biol).

B1: BMP-2: recombinant BMP2, agent capable of the induction of osteoblastic differentiation in vitro (protein, UniProt P12643 283-396, looked up)
Bone morphogenetic protein 2: QAKHKQRKRLKSSCKRHPLYVDFSDVGWNDWIVAPPGYHAFYCHGECPFPLADHLNSTNHAIVQTLVNSVNSKIPKACCVPTELSAISMLYLDENEKVVLKNYQDMVVEGCGCR
On to B1, for which, for the setting “C2C12, C3H10T1/2, ST2 and MC3T3-E1 cells”, the Ufo/Ax1 expression result is listed as “repressed”. Besides, under “C2C12, C3H10T1/2, ST-2 and MC3T3-E1 cells”, the “expression of CTGF” value is recorded as “strongly induces”. Where the note is “C2C12, C3H10T 1/2 and MC3T3-E1 cells”, the NOV gene expression entry is on record as “dramatic decrease”. Also, where the note is “C2C12, ST2 and MC3T3-E1”, the Gas6 expression result is recorded as “significantly upregulated”. For the same molecule, where the note is “C2C12 and C31410T1/2”, the “EphB3 receptor gene expression” value is recorded as “up-regulated”. For the same molecule, under “C3H10T1/2, ST-2 and MC3T3-E1 cells”, the LRP1 expression entry is “down-regulated”. The LDLR expression result (ST-2 and C3H10T1/2 cells) is “up-regulated”.
